The record followed here is paper PMC7540253, “Sensitive LC-MS/MS Method for the Quantification of Macrocyclic Gαq Protein Inhibitors in Biological Samples” (Frontiers in Chemistry, 2020).

For this data set the following is noted: CD-1 mice.
The mark [1] stands for this setting: single oral dose 0.2 mg FR, ~1.25 h, LC-MS/MS, three mice.

On to FR900359, for which the “Concentration of FR in stomach” value (single oral dose 0.2 mg FR by stomach tube, ~1.25 h after application, 3-step LLE, LC-MS/MS, organs from three mice (Figure 4)) was “highest concentrations”. The Peroral absorption result (single oral dose 0.2 mg FR, judged from tissue levels ~1.25 h after application) is on record as “low peroral absorption”. Further, under setting [1], the “Concentration of FR in adipose tissue” value is “Low levels”, the “Concentration of FR in brain” value is “almost no FR was detectable”, the “Concentration of FR in eyes” value is on record as “highest concentrations” and the “Concentration of FR in heart” value is “Low levels”. Also, under setting [1], the “Concentration of FR in intestine” value was “almost no FR was detectable”, the “Concentration of FR in liver” value is given as “Low levels” and the “Concentration of FR in lung” value is “Low levels”. Besides, the “Concentration of FR in blood plasma” value (single oral dose 0.2 mg FR, ~1.25 h, plasma diluted 1:10 in methanol, LC-MS/MS, three mice) is recorded as “almost no FR was detectable”.
